Test results: patent US7217735B1, “Methods and compositions for enhancing delivery of therapeutic agents to tissues” (priority 1999, dated 2007)

Tested on: patient tumors (head and neck, ovarian) and xenograft tumor
Assay: Paclitaxel uptake in tumor histocultures, all three tumor types

CC(=O)O[C@H]1C(=O)[C@@]2(C)[C@H]([C@H](OC(=O)c3ccccc3)[C@]3(O)C[C@H](OC(=O)[C@H](O)[C@@H](NC(=O)c4ccccc4)c4ccccc4)C(C)=C1C3(C)C)[C@]1(OC(C)=O)CO[C@@H]1C[C@@H]2O [paclitaxel]
dose accounted for (mass balance): about 90%
decrease of drug concentration in the medium (during uptake to steady state): about 25%
increase in tumor concentration after pseudo steady state (in the next 24 to 48 hr): < 5%
